Here are results for 1 compound from paper PMC4485437 (Biochemistry, 2015).

The chains behind the UniProt entries cited, without tags or fusion partners. Where a name states a change or a piece, a line headed by the entry shows the natural chain unless it says otherwise.
UniProt Q9KPI8: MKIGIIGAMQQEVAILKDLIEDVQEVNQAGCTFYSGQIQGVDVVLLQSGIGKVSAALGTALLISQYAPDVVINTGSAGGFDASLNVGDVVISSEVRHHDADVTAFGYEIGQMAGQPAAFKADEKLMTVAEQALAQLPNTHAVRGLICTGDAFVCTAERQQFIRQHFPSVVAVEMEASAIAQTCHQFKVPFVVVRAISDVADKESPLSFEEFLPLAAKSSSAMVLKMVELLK

Each structure is given as a SMILES string.

The assay addresses VcMTAN (WT) (Vibrio cholerae serotype O1, UniProt Q9KPI8). It counts as biochemical. As to conditions: read-out: Ki,MTDIA; 0.8 mM MTA.

Broadly, the Ki is the dissociation constant of the complex between target and ligand, obtained from inhibition or displacement. Consider `CSC[C@H]1CN(Cc2c[nH]c3c(N)ncnc23)C[C@@H]1O` [MTDIA, 4′-deaza-1′-aza-2′-deoxy-1′-(9-[^14C]methylene)-Immucillin-A], for which the Ki was 2.7 ± 0.2 pM.
